## Binding of CDR-mutated scFvs to a peptide of the spike HR2 region

Data: MIT Lincoln Laboratory AlphaSeq set, Engelhart et al. 2022, doi:10.1038/s41597-022-01779-4, as distributed in FLAb.

The target is the same throughout: PDVDLGDISGINAS, from the HR2 region of SARS-CoV-2 spike.

Each scFv is VL, a (GGGGS)3 linker, VH, as in the parent Ab-91, and differs from it in the CDRs of the heavy chain only.
VL: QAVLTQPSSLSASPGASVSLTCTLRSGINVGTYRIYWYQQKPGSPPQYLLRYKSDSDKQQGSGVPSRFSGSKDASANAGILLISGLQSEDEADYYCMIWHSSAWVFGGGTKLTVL
VH: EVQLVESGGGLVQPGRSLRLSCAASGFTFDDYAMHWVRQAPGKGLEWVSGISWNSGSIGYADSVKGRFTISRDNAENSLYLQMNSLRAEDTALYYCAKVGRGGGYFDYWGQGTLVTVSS

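The parent was found by panning a naive human phage display library on the peptide. AAYL51 was designed without a model: most single CDR substitutions and a random sample of double and triple ones. In AlphaSeq, yeast of one mating type display the scFv and yeast of the other type display the target. The frequency of each diploid, read from paired DNA barcodes, reflects how well the two displayed proteins bind. Each replicate has its own calibration line, from reference interactions of the BCL2 family. Each pool was mated in three replicate cultures.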

Each variant is given by its three heavy chain CDRs, as the data file delimits them; those of the parent are GFTFDDYAMH, GISWNSGSIGYADSVK, VGRGGGYFDY.
Affinities are written as log10 Kd with Kd in nM; a lower number is a better binder.
Replicates are averaged; those with no signal do not enter the mean.
"nd" marks a missing value. The strain was present, yet no cells mated with the target were sequenced in that replicate, which points to weak or no binding.
For reference, the parent read 1.86 as the reference entry and 0.88 as a member of this library.

| # | CDR-H1 | CDR-H2 | CDR-H3 | log10 Kd, replicates | mean, log10 nM | signal with controls |
|---|---|---|---|---|---|---|
| 1 | GFTFDDYAMH | GISWDSGSIGYADSVM | KGRGGGYFDY | 2.33 / 2.43 / 2.33 | 2.36 | 4 of 9 (4.50) |
| 2 | GFTFDDYAMH | GISWNSGSIGCADYVK | VGRKGGYFDY | nd / nd / nd | nd | 1 of 9 (3.68) |
| 3 | FFTFDCYAMH | GISWNSGSIGYADSVK | VGRGRGYFDY | 4.92 / 6.70 / nd | 5.81 | 2 of 9 (4.22) |
| 4 | GFTFDDYAMH | GISWNSGSIGYADSVK | VGRKGGNFDE | nd / nd / nd | nd | 0 of 9 |
| 5 | GFTFDDEAMH | GISRNSGSIGYADSVH | VGRGGGYFDY | 4.29 / 4.86 / 4.71 | 4.62 | 2 of 9 (4.78) |
| 6 | GFTFDDYAMH | GISWNSASIGYADSVK | VYRGGGYFQY | nd / nd / nd | nd | 0 of 9 |
| 7 | DSTFDDYAMH | GISWNSGSIGYADSVK | VVRGGGYFDY | nd / nd / nd | nd | 0 of 9 |
| 8 | GFTDDDYAMH | GISWNSGSIGYTDTVK | VGRGGGYFDY | nd / nd / nd | nd | 1 of 9 (2.47) |
| 9 | GFTFDDYAMH | GKSWNSGSICYLDSVK | VGRGGGYFDY | 5.89 / 5.78 / 4.82 | 5.50 | 2 of 9 (5.03) |
| 10 | GFTFDDGAMH | GISWNSGWIGYADSVC | VGRGGGYFDY | nd / nd / nd | nd | 0 of 9 |
| 11 | GFTFDDYAMH | GHSWNVGSIGYADSVK | VGRGGGYFVY | nd / nd / nd | nd | 1 of 9 (4.46) |
| 12 | GFTFDMYAMH | GISWNSGSIGAADSVK | VGLGGGYFDY | nd / 2.16 / 2.83 | 2.50 | 0 of 9 |
| 13 | GFTFADYAMH | GTSWNSGSIGYADSVK | VGRGGGYFDS | nd / nd / nd | nd | 0 of 9 |
| 14 | GFTFDDHAMH | GISWNSGSKGYADSVK | VGRGGGFFDY | nd / nd / nd | nd | 0 of 9 |
| 15 | GFTFDDWAMH | GISWYSGSIGYADSVK | VGRGGGYSDY | 3.50 / nd / nd | 3.50 | 0 of 9 |
| 16 | GFTFDDYAMH | GISWNSGSIGEADSVK | VGRCGGYPDY | nd / nd / nd | nd | 1 of 9 (4.05) |
| 17 | GFHFDDYAMH | GISWNSGSIGYADSVK | PGRGGGYFDR | nd / 3.65 / nd | 3.65 | 0 of 9 |
| 18 | GFTQDDYAMH | GLSWNSGSIGYADWVK | VGRGGGYFDY | nd / 4.65 / 4.05 | 4.35 | 5 of 9 (5.16) |
| 19 | GFTFDDYAMH | GISWNSGQISYADFVK | VGRGGGYFDY | nd / nd / nd | nd | 1 of 9 (3.89) |
| 20 | GVTFDDYAMH | GISWNSGSIGYADSVK | VGRGGAYFDY | 3.20 / nd / nd | 3.20 | 0 of 9 |
| 21 | GFTFDDWADH | GISWNSGSIGYADSVK | VGRGGGYFDY | 3.89 / nd / nd | 3.89 | 1 of 9 (4.70) |
| 22 | GFHKDDYAMH | GISWNSGSIGYADSVK | VRRGGGYFDY | nd / nd / nd | nd | 2 of 9 (4.41) |
| 23 | GFTFHDYAMH | GITWSSGSIGYADSVK | VGRGGGYFDY | 4.54 / 5.93 / nd | 5.24 | 3 of 9 (4.94) |
| 24 | GFTFWDYAMH | GISWPSGSIGMADSVK | VGRGGGYFDY | nd / 4.75 / nd | 4.75 | 0 of 9 |
| 25 | GFTFDDYVMH | GISWNSGSIGYAWSVK | VGRGFGYFDY | nd / nd / nd | nd | 0 of 9 |
| 26 | GFTFDDYAMH | GISWNSGLIGYAMSVK | VGRGGPYFDY | nd / nd / nd | nd | 0 of 9 |
| 27 | GFTFDDYRME | GISWNEGSIGYADSVK | VGRGGGYFDY | nd / nd / nd | nd | 0 of 9 |
| 28 | GFTFDDYALH | GIYWHSGSIGYADSVK | VGRGGGYFDY | nd / nd / nd | nd | 0 of 9 |
| 29 | GFTFDDYAMH | GASWNSGSIYYADSVK | VGMGGGYFDY | 5.28 / nd / nd | 5.28 | 3 of 9 (4.93) |
| 30 | GFTFDFYAMH | GISWNEGSIGYADSVK | VGRGSGYFDY | 3.99 / 3.66 / 3.14 | 3.60 | 4 of 9 (5.66) |
| 31 | NFTFYDYAMH | GISWNSGSFGYADSVK | VGRGGGYFDY | nd / 3.95 / 4.19 | 4.07 | 0 of 9 |
| 32 | GFTFDDYAMH | GIGWNSGNIGYADPVK | VGRGGGYFDY | 3.33 / 4.55 / nd | 3.94 | 1 of 9 (4.53) |
| 33 | GFTFDIYAMG | GISWNSGSIGYADSVK | VGRGGGYEDY | nd / nd / nd | nd | 0 of 9 |
| 34 | GFTFDDYAMH | GISWNSGSITYADSVK | VGRGGGNFDY | nd / 4.06 / nd | 4.06 | 2 of 9 (3.98) |
| 35 | MFTFDDYAMH | GISWNSGSIGYADSVK | VARGGGYFRY | 5.73 / nd / 4.62 | 5.17 | 1 of 9 (4.47) |
| 36 | GFTFDFYAMH | GIYWNSGGIGYADSVK | VGRGGGYFDY | nd / nd / nd | nd | 2 of 9 (4.16) |

Picked from the list: the 4 lowest averages where every replicate gave a value.

CDR-H1	CDR-H2	CDR-H3	log10 Kd, replicates	mean, log10 nM	signal with controls
GFTFDDYAMH	GISWDSGSIGYADSVM	KGRGGGYFDY	2.33 / 2.43 / 2.33	2.36	4 of 9 (4.50)
GFTFDFYAMH	GISWNEGSIGYADSVK	VGRGSGYFDY	3.99 / 3.66 / 3.14	3.60	4 of 9 (5.66)
GFTFDDEAMH	GISRNSGSIGYADSVH	VGRGGGYFDY	4.29 / 4.86 / 4.71	4.62	2 of 9 (4.78)
GFTFDDYAMH	GKSWNSGSICYLDSVK	VGRGGGYFDY	5.89 / 5.78 / 4.82	5.50	2 of 9 (5.03)

As a blank, each scFv also met three strains without target: over library AAYL51, 21% of these pairings were detected, typically at 4.54 and seldom below 3.26. The control count says in how many pairings with the empty strains this scFv gave a signal, with their mean in brackets.